Only a part is listed here, and it is no random draw. Some of these compounds have results that are not shown, active ones among them. Calls of active or inactive are those of the source.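 Rule for the calls: active = activation at 10 µM reaching about 35% in either raw or pattern-adjusted values (limit read from the data); inactive = the rest.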

Chains of the proteins cited; added tags and fusions are not shown.
UniProt P20594, whole entry: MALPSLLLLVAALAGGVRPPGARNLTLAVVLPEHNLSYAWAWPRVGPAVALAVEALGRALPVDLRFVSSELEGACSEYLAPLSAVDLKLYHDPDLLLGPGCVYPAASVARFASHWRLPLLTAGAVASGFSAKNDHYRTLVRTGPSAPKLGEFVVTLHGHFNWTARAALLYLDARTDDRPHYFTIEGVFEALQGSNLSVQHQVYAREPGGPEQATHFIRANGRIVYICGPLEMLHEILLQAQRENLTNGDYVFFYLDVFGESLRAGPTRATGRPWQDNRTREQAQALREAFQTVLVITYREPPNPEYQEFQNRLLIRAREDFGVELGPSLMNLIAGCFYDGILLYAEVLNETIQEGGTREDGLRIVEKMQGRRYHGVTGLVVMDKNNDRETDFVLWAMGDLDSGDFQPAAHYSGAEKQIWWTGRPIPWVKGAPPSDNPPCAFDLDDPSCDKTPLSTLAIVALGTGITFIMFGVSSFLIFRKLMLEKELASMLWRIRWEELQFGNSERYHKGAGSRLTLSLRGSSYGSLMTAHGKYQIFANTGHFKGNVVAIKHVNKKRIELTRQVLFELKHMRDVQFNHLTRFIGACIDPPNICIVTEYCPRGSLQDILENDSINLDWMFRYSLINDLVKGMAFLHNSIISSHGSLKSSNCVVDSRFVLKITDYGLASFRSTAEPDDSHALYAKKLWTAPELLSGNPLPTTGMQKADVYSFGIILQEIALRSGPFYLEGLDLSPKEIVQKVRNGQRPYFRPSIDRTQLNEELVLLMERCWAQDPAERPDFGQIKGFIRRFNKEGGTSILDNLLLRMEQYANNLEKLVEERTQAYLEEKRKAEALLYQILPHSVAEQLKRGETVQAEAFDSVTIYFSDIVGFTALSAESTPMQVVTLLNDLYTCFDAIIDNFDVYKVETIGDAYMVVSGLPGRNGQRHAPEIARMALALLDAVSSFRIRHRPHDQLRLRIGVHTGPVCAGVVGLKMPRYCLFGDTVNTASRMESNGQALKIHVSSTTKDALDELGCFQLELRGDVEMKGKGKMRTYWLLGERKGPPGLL

Data on 26 compounds can be found in PubChem BioAssay AID1920062 (Sanford-Burnham Center for Chemical Genomics, 2024).

The test addresses Atrial natriuretic peptide receptor 2 (Homo sapiens) (UniProt P20594). Kind of test: human GC-B receptor activators, primary screen, HEK293 GC-B cells, cGMP TR-FRET, EC30 CNP (AID 1920062). Conditions: at 10 µM, stronger effect = higher value, 0% at EC30 CNP, 100% saturating CNP. (In general: Time-resolved FRET reads energy transfer from a long-lived donor to a nearby acceptor.)
As to `Cc1ccc(C(=O)NCC2(N3CCCCC3)CCCCC2)cc1`, the activation was inactive: -1.77%.

As for `COc1cc(SC)ccc1C(=O)NCC1(N(C)C)CCCCC1`, the activation is inactive: 1.89%.

Turning to `CCN(CC)CC(C)C(C)OC(=O)C(O)(c1ccccc1)c1ccccc1` (stereo unspecified), the activation is inactive: -1.55%.

In the case of `CC(C)N1C(=O)CC2(CCN(CCOC(=O)C(O)(c3ccccc3)c3ccccc3)CC2)C1=O`, the activation was inactive: 4.87%.

Regarding `CN1[C@@H]2CC[C@H]1CC(OC(=O)C(O)(c1ccccc1)c1ccccc1)C2` (stereo partly specified), the activation is inactive: 0.78%.

On to `O=C(NCC1(N2CCCCC2)CCCCC1)c1cc([N+](=O)[O-])ccc1Cl`, for which the activation is inactive: 5.9%.

With `COc1ccc(C(=O)NCC2(N(C)C)CCCCC2)cc1`, the activation was inactive: 1.17%.

`O=C(NCC1(N2CCCCC2)CCCCC1)c1cccc(Br)c1`: the activation is inactive: 1.56%.

On to `CCN1CCCC(OC(=O)C2(O)c3ccccc3C=Cc3ccccc32)C1` (stereo unspecified), for which the activation was inactive: -18.1%.

`Cc1cc(C(=O)NCC2(N3CCCCC3)CCCCC2)ccc1[N+](=O)[O-]`: the activation was inactive: 1.35%.

With `O=C(NCC1(N2CCCCC2)CCCCC1)c1cc(F)c(F)cc1Cl`, the activation is inactive: -2.47%.

Turning to `C=CCN1CCN(CCOC(=O)C(O)(c2ccccc2)c2ccccc2)CC1`, the activation is inactive: -0.29%.

Regarding `CN(C)c1ccc(C(=O)NCC2(N(C)C)CCCCC2)cc1`, the activation is inactive: -2.15%.

As for `CN(C)C1CCCC1OC(=O)C(O)(c1ccccc1)c1ccccc1` (stereo unspecified), the activation was inactive: -4.56%.

Turning to `Cc1ccccc1C(=O)NCC1(N2CCCCC2)CCCCC1`, the activation is inactive: -0.28%.

As to `O=C(NCC1(N2CCCCC2)CCCCC1)c1cccc(Cl)c1`, the activation was inactive: -0.18%.

For the compound `COc1ccc(Cl)cc1C(=O)NCC1(N(C)C)CCCCC1`, the activation was inactive: -0.56%.

As for `COc1cccc(C(=O)NCC2(N3CCCCC3)CCCCC2)c1`, the activation was inactive: 2.04%.

`COc1cc(C(=O)NCC2(N(C)C)CCCCC2)c([N+](=O)[O-])cc1OC`: the activation was inactive: 2.59%.

On to `CN(C)C1(CNC(=O)c2ccc(Br)cc2)CCCCC1`, for which the activation was inactive: -2.51%.

Consider `O=C(OCCN1CCCC1)C(O)(c1ccccc1)c1ccccc1`, for which the activation is inactive: 1.78%.

As to `CC(C)Oc1ccc(C(=O)NCC2(N(C)C)CCCCC2)cc1`, the activation is inactive: 1.6%.

Turning to `CN(C)c1cccc(C(=O)NCC2(N(C)C)CCCCC2)c1`, the activation is inactive: 4.5%.

For the compound `C=C(C)C#CC(O)(C(=O)OC1CCN(C)CC1)c1ccccc1` (stereo unspecified), the activation is inactive: -1.08%.

Regarding `COc1ccc(Br)c(C(=O)NCC2(N3CCCCC3)CCCCC2)c1`, the activation was inactive: -5.07%.

For `O=C(OC1CN2CCC1CC2)C(CO)(c1ccccc1)c1ccccc1` (stereo unspecified), the activation was inactive: -3.21%.
